These are literature values, as cited in patent US7141590B2, “Pharmaceutical uses and synthesis of nicotinanilide-N-oxides” (UCB SA, priority 2000, dated 2006).

Chains of the proteins cited; added tags and fusions are not shown.
UniProt P25929, whole entry: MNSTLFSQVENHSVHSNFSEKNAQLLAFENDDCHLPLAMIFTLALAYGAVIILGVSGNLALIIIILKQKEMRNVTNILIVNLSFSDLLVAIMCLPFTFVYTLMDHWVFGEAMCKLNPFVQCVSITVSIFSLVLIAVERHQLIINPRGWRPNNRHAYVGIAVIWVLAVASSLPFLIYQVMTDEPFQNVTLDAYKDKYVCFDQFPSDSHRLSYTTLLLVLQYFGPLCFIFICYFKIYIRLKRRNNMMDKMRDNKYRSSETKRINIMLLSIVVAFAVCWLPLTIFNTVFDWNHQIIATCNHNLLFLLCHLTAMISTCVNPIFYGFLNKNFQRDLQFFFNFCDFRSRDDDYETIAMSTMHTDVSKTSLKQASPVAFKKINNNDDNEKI

The target of this series is T1, human neuropeptide Y1 (NPY1) receptors (Homo sapiens, UniProt P25929).
T1 construct: SK-N-MC (human neuroblastoma) cells were used in modified HBSS pH 7.4 buffer; host or cells: SK-N-MC (human neuroblastoma) cells
Conditions: NPY1 reference data; cited from earlier work.

“NPY (13–36): neuropeptide Y fragment 13–36”: the 50% inhibitory concentration (IC50) (commonly the concentration needed to halve the response being measured) was 2200 nM; the Ki – broadly, the equilibrium dissociation constant of an inhibitor or competing ligand from its target – is 2100 nM; the nH is 1.1.
